# Test results as given in patent US20180291285A1 (Clariant International, Ltd., priority 2015, published 2018).
# Conditions: 28 d
# Source text: As mentioned before. The environmental acceptability of these esterquat surfactant compounds is of essential importance for emulsion breaking operations in oil production processes.
substance,measurement,value
Dioleic acid triethanolamine esterquat [Di-oleic acid triethanolamine esterquat],biodegradation OECD 306,67%
